# Results published in patent EP2246331A1, “NR2B-selective NMDA-receptor antagonists” (Westfälische Wilhelms-Universität Münster, priority 2009, dated 2010).
# Biological target: T1, σ2 receptor (Rattus norvegicus, UniProt Q5U3Y7)
# T1 construct: tissue Harlan Winkelmann; host or cells: rat liver membranes
# T1 sequence (Q5U3Y7 1-176): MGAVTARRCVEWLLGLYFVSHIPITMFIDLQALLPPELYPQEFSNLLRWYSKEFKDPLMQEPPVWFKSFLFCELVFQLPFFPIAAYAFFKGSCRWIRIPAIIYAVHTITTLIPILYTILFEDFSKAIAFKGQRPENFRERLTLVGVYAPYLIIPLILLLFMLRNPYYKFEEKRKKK
# Assay: Receptor binding assay with [3H]-ditolylguanidine on rat liver membranes
# Conditions: 3 nM [3H]-ditolylguanidine with 2 µM (+)-pentazocine
# Method: The pig brains were a donation of the local slaughterhouse (Coesfeld, Germany). Homogenizer: Elvehjem Potter (B. Braun Biotech International, Melsungen, Germany). Centrifuge: High-speed cooling centrifuge model Sorvall RC-5C plus (Thermo Fisher Scientific, Langenselbold, Germany). Filter: Printed Filtermat Typ A and B (Perkin Elmer LAS, Rodgau-Jügesheim, Germany), presoaked in 0.5% aqueous polyethylenimine for 2 h at room temperature before use. […] Before filling to the final volume of 1000 mL, the pH of the solution was adjusted to pH=7.5 by dropwise addition of 1M HCl. The filtration was carried out with a MicroBeta FilterMate-96 Harvester (Perkin Elmer). The scintillation analysis was performed using Meltilex (Typ A or B) solid scintillator (Perkin Elmer). […] After solidifying of the scintillator at room temperature, the scintillation was measured using a MicroBeta Trilux scintillation analyzer (Perkin Elmer). […]
# Two rat livers (Harlan Winkelmann, Borchen, Germany) were cut into smaller pieces and homogenized with the potter (500-800 rpm, 10 up-and-down strokes) in 6 volumes of cold 0.32 M sucrose. […] The final pellet was resuspended in 5 to 6 volumes of buffer, the protein concentration was determined according to the method of Bradford using bovine serum albumin as standard, and subsequently the preparation was frozen (-80 °C) in 1.5 mL portions containing about 2 mg protein/mL. […]
smiles,measurement,value
Oc1ccc2c(c1)CCN(CCCCc1ccccc1)CC2O (stereo not shown) [formula (4)],inhibition of the σ2 receptor only at concentrations above,above 1 µM
